The values below are quoted from earlier work in patent US20250127985A1, “IMPLANTABLE AND REFILLABLE DRUG DELIVERY RESERVOIR SYSTEM WITH POROUS METAL FRIT FOR SUSTAINED INTRACEREBROVENTRICULAR DELIVERY AND METHODS OF USE” (Genentech, Inc., priority 2022, published 2025).

Where two headings read alike, the source gives them in different places.

For the data set the following is noted: bovine serum albumin in water at 20° C. (Molokhia et al, Exp Eye Res 2008).

As for bovine serum albumin [BSA], the “Diff. Coeff” value was 6.1E−07 cm^2/s. Moreover, the “Diff. Coeff” value (listed as bovine serum albumin) is on record as 6.1 e-7 cm^2/s.
